# Only a part is listed here, and it is no random draw. Some results for these compounds are left out of this collection, so the calls shown say nothing about other tests. Results filed as inconclusive are left out. Active and inactive are the calls of the source.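 Rule for the calls: active = more than half of the replicate wells show a fall in the fluorescence ratio signal beyond about 16% (limit read from the data, passing the limit was not always enough); inconclusive = exactly half of the replicate wells pass the set limit; inactive = fewer than half of replicates pass the limit.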
# System: Ran GTPase (GTP-bound) - importin-beta complex
# Test: disruptors of Ran-importin-beta complex formation – biochemical, FRET, CFP-Ran, YFP-importin-beta, homogeneous, primary screen (AID 2216);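 note: 0% = DMSO wells and 100% = Ran loaded with GDP instead of GTP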
# Conditions: cell-free CFP-Ran/YFP-importin-beta FRET ratio; active compounds read high; concentration not given here
row,SMILES,inhibition
1,O=C(NCC1(N2CCCCC2)CCCCC1)c1cc(F)c(F)cc1Cl,inactive: -0.18%
2,CCN1CCCC(OC(=O)C2(O)c3ccccc3C=Cc3ccccc32)C1 (configuration not stated),inactive: 5.69%
3,Cc1cc(C(=O)NCC2(N3CCCCC3)CCCCC2)ccc1[N+](=O)[O-],inactive: 1.77%
4,O=C(NCC1(N2CCCCC2)CCCCC1)c1cccc(Br)c1,inactive: 4.71%
5,Cc1ccccc1C(=O)NCC1(N2CCCCC2)CCCCC1,inactive: 0.667%
6,CN(C)c1ccc(C(=O)NCC2(N(C)C)CCCCC2)cc1,inactive: 1.74%
7,CN(C)C1CCCC1OC(=O)C(O)(c1ccccc1)c1ccccc1 (configuration not stated),inactive: 6.11%
8,CC(C)N1C(=O)CC2(CCN(CCOC(=O)C(O)(c3ccccc3)c3ccccc3)CC2)C1=O,inactive: 3.81%
9,CCN(CC)CC(C)C(C)OC(=O)C(O)(c1ccccc1)c1ccccc1 (configuration not stated),inactive: -0.635%
10,COc1cc(SC)ccc1C(=O)NCC1(N(C)C)CCCCC1,inactive: 5.33%
11,Cc1ccc(C(=O)NCC2(N3CCCCC3)CCCCC2)cc1,inactive: 7.58%
12,O=C(NCC1(N2CCCCC2)CCCCC1)c1cc([N+](=O)[O-])ccc1Cl,inactive: 1.19%
13,CN1[C@@H]2CC[C@H]1CC(OC(=O)C(O)(c1ccccc1)c1ccccc1)C2 (some centres not stated),inactive: 6.77%
14,COc1ccc(Br)c(C(=O)NCC2(N3CCCCC3)CCCCC2)c1,inactive: 7.26%
15,CN(C)c1cccc(C(=O)NCC2(N(C)C)CCCCC2)c1,inactive: 3.01%
16,CC(C)Oc1ccc(C(=O)NCC2(N(C)C)CCCCC2)cc1,inactive: 2.95%
17,O=C(OC1CN2CCC1CC2)C(CO)(c1ccccc1)c1ccccc1 (configuration not stated),inactive: 2.83%
18,COc1cccc(C(=O)NCC2(N3CCCCC3)CCCCC2)c1,inactive: -1.04%
19,COc1ccc(Cl)cc1C(=O)NCC1(N(C)C)CCCCC1,inactive: 3.81%
20,O=C(NCC1(N2CCCCC2)CCCCC1)c1cccc(Cl)c1,inactive: 1.68%
21,CN(C)C1(CNC(=O)c2ccc(Br)cc2)CCCCC1,inactive: 2.08%
22,COc1cc(C(=O)NCC2(N(C)C)CCCCC2)c([N+](=O)[O-])cc1OC,inactive: 2.92%
